Consider two compounds from ChEMBL document CHEMBL4732138, “Evaluation of the Structure-Activity Relationship of Microtubule-Targeting 1,2,4-Triazolo[1,5-a]pyrimidines Identifies New Candidates for Neurodegenerative Tauopathies” (J Med Chem, 2021).

Sequences of proteins named here, by UniProt entry; tags and fusion partners are left off. A change or cut given only in a name is not applied to a line headed by its entry.
UniProt P68371: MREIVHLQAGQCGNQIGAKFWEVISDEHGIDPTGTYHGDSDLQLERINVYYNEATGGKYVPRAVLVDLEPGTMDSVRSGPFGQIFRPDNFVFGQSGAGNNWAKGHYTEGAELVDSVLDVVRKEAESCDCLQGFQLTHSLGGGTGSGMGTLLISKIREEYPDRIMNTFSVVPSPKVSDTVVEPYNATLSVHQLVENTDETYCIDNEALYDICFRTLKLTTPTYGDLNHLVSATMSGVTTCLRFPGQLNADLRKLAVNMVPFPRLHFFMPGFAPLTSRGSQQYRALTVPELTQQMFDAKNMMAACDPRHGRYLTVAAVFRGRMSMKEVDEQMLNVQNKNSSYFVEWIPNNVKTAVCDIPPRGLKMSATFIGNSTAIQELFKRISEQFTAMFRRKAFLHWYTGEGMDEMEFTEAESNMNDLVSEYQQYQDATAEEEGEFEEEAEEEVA
UniProt Q9H4B7: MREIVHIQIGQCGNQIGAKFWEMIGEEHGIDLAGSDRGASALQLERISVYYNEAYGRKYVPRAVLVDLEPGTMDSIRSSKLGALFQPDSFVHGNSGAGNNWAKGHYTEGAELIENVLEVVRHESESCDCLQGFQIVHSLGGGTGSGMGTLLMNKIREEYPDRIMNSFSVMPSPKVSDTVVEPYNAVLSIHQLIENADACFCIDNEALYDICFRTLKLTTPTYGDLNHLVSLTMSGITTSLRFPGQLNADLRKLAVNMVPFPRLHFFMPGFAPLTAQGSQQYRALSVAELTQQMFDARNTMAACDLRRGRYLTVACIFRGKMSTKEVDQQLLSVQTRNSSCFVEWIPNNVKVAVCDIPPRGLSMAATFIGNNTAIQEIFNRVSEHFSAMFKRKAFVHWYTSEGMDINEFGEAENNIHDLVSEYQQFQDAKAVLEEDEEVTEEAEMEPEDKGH
UniProt P0DPH7: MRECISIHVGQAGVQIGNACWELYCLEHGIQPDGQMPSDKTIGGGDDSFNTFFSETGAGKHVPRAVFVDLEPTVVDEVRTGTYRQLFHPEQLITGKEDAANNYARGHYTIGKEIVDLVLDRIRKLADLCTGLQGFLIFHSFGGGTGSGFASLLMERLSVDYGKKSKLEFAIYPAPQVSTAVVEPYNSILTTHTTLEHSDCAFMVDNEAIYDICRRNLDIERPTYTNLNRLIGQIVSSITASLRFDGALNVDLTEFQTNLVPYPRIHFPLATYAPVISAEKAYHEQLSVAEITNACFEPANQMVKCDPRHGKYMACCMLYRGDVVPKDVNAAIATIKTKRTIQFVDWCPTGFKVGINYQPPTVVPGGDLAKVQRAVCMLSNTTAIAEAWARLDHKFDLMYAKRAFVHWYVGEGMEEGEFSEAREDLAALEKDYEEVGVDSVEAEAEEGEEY
UniProt P68366: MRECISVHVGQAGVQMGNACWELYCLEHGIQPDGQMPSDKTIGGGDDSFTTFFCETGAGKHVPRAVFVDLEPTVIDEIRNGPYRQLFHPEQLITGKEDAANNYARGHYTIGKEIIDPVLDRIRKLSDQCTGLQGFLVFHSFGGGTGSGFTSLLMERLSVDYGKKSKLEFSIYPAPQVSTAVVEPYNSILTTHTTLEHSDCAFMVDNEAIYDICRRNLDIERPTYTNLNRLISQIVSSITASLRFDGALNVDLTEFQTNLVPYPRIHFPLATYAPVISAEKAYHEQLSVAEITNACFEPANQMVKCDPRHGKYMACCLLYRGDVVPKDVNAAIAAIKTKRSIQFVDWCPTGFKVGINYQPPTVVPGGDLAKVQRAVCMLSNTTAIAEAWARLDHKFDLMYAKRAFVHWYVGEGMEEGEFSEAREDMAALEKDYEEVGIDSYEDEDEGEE
UniProt Q13509: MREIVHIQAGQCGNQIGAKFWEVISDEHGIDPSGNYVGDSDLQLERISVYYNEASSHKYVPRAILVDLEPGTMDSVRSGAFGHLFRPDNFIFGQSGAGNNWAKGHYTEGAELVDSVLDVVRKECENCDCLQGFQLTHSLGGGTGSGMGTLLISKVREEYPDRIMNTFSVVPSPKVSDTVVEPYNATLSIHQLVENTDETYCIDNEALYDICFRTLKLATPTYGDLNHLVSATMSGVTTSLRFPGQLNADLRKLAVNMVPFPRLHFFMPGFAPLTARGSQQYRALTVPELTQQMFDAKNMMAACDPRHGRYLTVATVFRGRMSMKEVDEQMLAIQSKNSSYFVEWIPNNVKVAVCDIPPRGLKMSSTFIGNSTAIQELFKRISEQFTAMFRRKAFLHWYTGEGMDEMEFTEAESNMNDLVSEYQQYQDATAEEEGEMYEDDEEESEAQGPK
UniProt Q71U36: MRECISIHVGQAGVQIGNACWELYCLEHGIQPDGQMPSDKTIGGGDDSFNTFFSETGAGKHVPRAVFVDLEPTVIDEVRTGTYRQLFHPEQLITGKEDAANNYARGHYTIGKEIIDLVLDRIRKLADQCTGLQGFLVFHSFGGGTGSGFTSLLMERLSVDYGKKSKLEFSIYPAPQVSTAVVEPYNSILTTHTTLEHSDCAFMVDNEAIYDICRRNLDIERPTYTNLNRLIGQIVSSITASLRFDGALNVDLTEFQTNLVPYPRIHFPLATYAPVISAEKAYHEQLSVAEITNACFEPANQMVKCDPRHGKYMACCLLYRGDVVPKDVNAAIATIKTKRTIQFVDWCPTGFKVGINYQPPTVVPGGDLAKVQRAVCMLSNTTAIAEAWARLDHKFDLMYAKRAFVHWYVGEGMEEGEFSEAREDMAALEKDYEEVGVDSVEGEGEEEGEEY
UniProt P04350: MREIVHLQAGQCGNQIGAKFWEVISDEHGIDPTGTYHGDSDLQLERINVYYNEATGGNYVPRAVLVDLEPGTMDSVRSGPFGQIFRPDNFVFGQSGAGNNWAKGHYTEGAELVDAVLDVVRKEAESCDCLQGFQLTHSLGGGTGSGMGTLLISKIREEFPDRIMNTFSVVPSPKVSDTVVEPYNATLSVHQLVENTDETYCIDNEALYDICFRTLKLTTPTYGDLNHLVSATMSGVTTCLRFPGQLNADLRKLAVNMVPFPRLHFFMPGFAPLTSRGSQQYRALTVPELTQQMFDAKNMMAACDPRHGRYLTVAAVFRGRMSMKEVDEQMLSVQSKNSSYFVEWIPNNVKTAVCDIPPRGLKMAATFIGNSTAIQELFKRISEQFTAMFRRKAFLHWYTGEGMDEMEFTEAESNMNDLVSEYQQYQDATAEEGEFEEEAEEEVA
UniProt Q3ZCM7: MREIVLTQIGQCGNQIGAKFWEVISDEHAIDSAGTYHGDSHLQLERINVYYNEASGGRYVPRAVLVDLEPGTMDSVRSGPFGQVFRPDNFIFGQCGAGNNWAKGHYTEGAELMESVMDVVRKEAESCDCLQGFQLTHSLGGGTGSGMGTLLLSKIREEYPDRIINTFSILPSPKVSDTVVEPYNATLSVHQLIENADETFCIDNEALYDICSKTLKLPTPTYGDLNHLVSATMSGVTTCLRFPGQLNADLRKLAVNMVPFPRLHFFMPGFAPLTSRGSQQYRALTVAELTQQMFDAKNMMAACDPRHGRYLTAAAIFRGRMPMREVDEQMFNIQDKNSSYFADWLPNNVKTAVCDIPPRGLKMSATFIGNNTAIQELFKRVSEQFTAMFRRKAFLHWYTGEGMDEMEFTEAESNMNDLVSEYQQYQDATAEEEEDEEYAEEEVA
UniProt P07437: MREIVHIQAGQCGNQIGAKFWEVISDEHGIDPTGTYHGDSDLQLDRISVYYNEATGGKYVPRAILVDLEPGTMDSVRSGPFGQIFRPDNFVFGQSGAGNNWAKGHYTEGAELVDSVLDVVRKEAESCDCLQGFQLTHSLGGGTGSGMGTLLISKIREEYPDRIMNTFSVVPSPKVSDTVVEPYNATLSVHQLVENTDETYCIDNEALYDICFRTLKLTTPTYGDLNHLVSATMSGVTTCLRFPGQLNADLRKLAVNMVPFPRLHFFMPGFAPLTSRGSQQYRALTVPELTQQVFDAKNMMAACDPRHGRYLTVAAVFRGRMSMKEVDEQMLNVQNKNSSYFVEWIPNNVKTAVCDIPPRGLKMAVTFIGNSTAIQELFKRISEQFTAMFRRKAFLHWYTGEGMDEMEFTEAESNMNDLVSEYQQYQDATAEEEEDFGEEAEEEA
UniProt P68363: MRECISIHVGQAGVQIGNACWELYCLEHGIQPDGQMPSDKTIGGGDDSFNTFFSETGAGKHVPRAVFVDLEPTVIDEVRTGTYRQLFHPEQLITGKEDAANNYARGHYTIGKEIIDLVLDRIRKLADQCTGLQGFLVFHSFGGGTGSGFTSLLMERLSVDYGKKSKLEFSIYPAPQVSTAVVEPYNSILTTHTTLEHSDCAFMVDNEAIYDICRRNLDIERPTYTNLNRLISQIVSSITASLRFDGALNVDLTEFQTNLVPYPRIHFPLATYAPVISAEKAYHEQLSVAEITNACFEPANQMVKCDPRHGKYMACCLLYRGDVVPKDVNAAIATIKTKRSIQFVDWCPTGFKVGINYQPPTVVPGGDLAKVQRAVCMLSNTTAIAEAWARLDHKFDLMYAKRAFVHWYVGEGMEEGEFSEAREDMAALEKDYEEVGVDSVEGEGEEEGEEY
UniProt Q9BQE3: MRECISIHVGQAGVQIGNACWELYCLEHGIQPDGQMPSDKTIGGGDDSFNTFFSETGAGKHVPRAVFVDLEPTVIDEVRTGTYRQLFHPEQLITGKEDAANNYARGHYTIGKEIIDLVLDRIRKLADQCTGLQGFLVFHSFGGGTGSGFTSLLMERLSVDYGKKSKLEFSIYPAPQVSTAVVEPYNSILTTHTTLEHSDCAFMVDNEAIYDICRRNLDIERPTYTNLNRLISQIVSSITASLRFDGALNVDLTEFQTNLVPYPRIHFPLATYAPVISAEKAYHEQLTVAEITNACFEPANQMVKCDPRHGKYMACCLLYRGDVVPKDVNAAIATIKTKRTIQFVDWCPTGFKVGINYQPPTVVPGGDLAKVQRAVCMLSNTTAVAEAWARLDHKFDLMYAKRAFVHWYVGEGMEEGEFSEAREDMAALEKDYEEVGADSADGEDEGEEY
UniProt Q6PEY2: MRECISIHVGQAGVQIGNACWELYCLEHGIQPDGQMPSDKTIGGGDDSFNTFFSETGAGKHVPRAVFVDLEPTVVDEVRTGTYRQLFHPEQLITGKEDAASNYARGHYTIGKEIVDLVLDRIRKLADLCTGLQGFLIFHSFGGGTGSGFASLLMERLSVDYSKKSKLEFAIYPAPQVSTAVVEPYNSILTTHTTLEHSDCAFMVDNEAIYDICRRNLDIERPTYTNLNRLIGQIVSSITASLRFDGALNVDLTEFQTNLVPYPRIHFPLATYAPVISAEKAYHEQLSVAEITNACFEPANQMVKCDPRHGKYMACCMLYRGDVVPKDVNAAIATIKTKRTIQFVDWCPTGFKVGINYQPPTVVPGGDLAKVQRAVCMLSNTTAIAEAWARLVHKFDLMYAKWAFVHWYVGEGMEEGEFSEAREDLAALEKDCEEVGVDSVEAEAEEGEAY
UniProt Q13885: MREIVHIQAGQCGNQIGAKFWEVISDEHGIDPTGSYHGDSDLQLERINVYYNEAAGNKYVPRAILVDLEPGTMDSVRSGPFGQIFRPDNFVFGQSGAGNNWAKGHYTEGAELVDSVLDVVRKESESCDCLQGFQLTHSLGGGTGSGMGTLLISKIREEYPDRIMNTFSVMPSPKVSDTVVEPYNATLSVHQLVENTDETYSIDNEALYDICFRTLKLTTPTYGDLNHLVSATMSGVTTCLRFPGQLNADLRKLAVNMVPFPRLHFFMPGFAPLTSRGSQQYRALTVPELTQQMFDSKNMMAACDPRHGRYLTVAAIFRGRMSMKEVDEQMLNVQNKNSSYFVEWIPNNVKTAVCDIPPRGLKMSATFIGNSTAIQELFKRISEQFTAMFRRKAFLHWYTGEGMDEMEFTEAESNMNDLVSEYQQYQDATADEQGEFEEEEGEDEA
UniProt Q9BVA1: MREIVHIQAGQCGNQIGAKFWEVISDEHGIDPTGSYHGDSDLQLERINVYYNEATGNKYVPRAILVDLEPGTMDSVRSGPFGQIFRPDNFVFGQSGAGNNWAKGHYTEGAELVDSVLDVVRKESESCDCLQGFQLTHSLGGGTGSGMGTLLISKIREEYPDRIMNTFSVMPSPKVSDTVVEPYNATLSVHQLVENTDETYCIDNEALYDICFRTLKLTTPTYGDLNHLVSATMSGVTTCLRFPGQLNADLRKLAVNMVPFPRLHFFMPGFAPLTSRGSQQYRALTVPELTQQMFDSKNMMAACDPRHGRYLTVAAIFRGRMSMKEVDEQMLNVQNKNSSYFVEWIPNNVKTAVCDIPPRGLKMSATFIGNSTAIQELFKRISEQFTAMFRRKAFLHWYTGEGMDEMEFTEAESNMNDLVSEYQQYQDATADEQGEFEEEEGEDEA

SMILES strings stand for the structures.

The test concerns the target Tubulin (Homo sapiens) (UniProt P68371+Q9H4B7+P0DPH7+P68366+Q13509+Q71U36+P04350+Q3ZCM7+P07437+P68363+Q9BQE3+Q6PEY2+Q13885+Q9BVA1+Q9BUF5). Description: Stabilization of microtubules in human QBI293 cells assessed as decrease in alpha-tubulin levels at 1 to 10 uM after 4 hrs by ELISA relative to control. Particulars: dose 1-10 µM. On the set-up: scale not given: the % may be the effect or the level left. The test is classed as cell-based. In a few lines: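 QBI293 cells are grown in DMEM with 10% FBS, 2 mM L-glutamine and penicillin/streptomycin, plated at 6 × 10^5 cells/well and incubated overnight. Compound (1 and 10 µM) or DMSO vehicle is given for 4 h. Acetyl- and total α-tubulin in whole-cell extract supernatants are measured by ELISA against standard curves, with protein by BCA. Values are fold-change over DMSO; AcTub is also given relative to 100 nM cevipabulin positive control. Significance is by one-way ANOVA.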

Regarding `C[C@H](Nc1c(-c2c(F)cc(SCCCN(C)C)cc2F)c(Cl)nc2ncnn12)C(F)(F)F`, the Activity is above 15%.
On to `C[C@H](Nc1c(-c2c(F)cc(OCCCN(C)C)cc2F)c(Cl)nc2ncnn12)C(F)(F)F`, for which the Activity was above 15%.
